## Ab-95 light chain CDR variants: yeast mating affinities

The measurements come from Engelhart et al. 2022 (doi:10.1038/s41597-022-01779-4) through the FLAb antibody collection.

Antigen: PDVDLGDISGINAS, a 14-residue peptide of the SARS-CoV-2 spike HR2 region.

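The starting antibody came from a phage panning campaign against this peptide. In library AAYL52, one, two or three CDR residues were substituted; doubles and triples were drawn at random. The scFvs were displayed on barcoded MATa yeast, the peptide on MATalpha yeast. After mating in shaken culture at 30 °C for 16 h, diploids were selected and their barcode pairs sequenced. A regression on co-assayed BCL2-family reference pairs converts the normalised counts of each replicate to an apparent Kd. Mating was done three times.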

The variants keep the heavy chain, the linker and the frameworks of Ab-95 (scFv order VH, a 15-residue (Gly4Ser)3 linker, VL).
VH: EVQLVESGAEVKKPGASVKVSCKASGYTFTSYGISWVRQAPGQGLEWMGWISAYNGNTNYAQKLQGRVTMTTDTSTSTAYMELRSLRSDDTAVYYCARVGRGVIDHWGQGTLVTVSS
VL: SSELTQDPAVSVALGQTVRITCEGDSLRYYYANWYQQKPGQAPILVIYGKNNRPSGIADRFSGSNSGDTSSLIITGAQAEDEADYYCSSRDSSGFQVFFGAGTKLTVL

The parent's light chain CDRs are EGDSLRYYYAN, GKNNRPS, SSRDSSGFQVF; each variant's own CDRs replace them letter for letter.
This list gathers variants with a substitution at Q96 (VL, numbered from residue 1).
Affinities are written as log10 Kd with Kd in nM; a lower number is a better binder.
A mean of the replicates is given; it leaves out those without a signal.
An entry "no signal" has no value in the source: the pair was not observed among the diploids in any replicate. This suggests poor binding but is not conclusive.
Background: pairings of library AAYL52 with three empty control strains gave a value in 28% of cases (median 3.91, 5th percentile 2.90). Values in that range, when seen in few replicates, are hard to tell from nonspecific mating. For each scFv, signals with the empty controls are counted beside the result.

EGDSLRKYYAN / GKNNRPS / SSRDSSGGSVF: no signal (0 of 3 replicates; controls 3 of 9).
EGDSLSYYYAN / GKNNRPS / SSRRSSGFSVF: 2.61 (3 of 3 replicates; controls 3 of 9).
EGDLLRYYYAN / GKNNRPS / SSRDSSGFTVF: 4.85 (1 of 3 replicates; controls 1 of 9).
EGDSLRFYYAN / GKNNRPS / KSRDSSGFNVF: 4.04 (1 of 3 replicates; controls 4 of 9).
EGDSLRYYYAN / PKNNRPS / SSRDSSGDLVF: 4.29 (1 of 3 replicates; controls 4 of 9).
EGDSLRYTYAN / GKNNRPS / SSRDLSGFPVF: 1.76 (3 of 3 replicates; controls 5 of 9).
EGDSLRFYYAN / GKNNRSS / SSRDSSGFMVF: 3.82 (3 of 3 replicates; controls 5 of 9).
EGDNLRYYYAN / GKNNRPH / SSRDSSGFGVF: 3.50 (1 of 3 replicates; controls 0 of 9).
EGDSLRYYYAN / GKNNRLS / SSRDSSGFRDF: 2.43 (3 of 3 replicates; controls 3 of 9).
EGDSLRYYYWN / GKNNRPS / SSRDSSGLRVF: 3.89 (3 of 3 replicates; controls 1 of 9).
EGDSLRYYYAN / GKNNRSS / SSRDSSGFCVF: 4.17 (3 of 3 replicates; controls 5 of 9).
EGDSLRYYYAN / GKNNRPS / SSRNNSGFVVF: no signal (0 of 3 replicates; controls 4 of 9).
EGDSQRYLYAN / GKNNRPS / SSRDSSGFIVF: 3.00 (2 of 3 replicates; controls 2 of 9).
EGDSLRYYYAN / GKINRPA / SSRDSSGFHVF: 3.88 (3 of 3 replicates; controls 4 of 9).
EGDSLRCYYAN / GKNNRPS / SPRDSSGFMVF: 3.21 (1 of 3 replicates; controls 2 of 9).
EGDSLRYYYRN / GKNNRPS / SSRDHSGFFVF: 3.81 (3 of 3 replicates; controls 5 of 9).
FGDSLRYYYAN / GKNNRPS / SSRDSSGQDVF: 3.70 (3 of 3 replicates; controls 3 of 9).
EGDSLRYYYAN / GKNNRPS / SSRDSSGSTVF: 2.08 (3 of 3 replicates; controls 2 of 9).
NGDSLRYYYAN / GKNNRPS / SSRDSCGFIVF: 2.94 (3 of 3 replicates; controls 3 of 9).
EGDSLRYYYRN / GKNNRPS / SSRDSSGFGDF: 5.12 (2 of 3 replicates; controls 3 of 9).
EGDSLRYYYAN / GKNNRGS / SSRDSSGFTVF: 2.91 (3 of 3 replicates; controls 1 of 9).
EGDSLRYYYAN / GKHNRPS / SSRDDSGFMVF: 4.32 (2 of 3 replicates; controls 2 of 9).
EGDSLRYYYAN / MKNNRPS / SSRDISGFYVF: 4.26 (2 of 3 replicates; controls 4 of 9).
EGDSLRYYYAN / GKNNQVS / SSRDSSGFHVF: 2.80 (3 of 3 replicates; controls 4 of 9).
EGDSLRYYYAN / GKNNRPS / GSRDSSGFVPF: 1.82 (3 of 3 replicates; controls 6 of 9).
EGDSRRYYYAN / GKNNRPD / SSRDSSGFAVF: no signal (0 of 3 replicates; controls 2 of 9).
EGDSLRYYYAN / GKNNMPS / SSTDSSGFEVF: 2.98 (1 of 3 replicates; controls 2 of 9).
EGDSLRYYYAN / GKNNRPS / SSHSSSGFHVF: 3.67 (2 of 3 replicates; controls 0 of 9).
EGDSLLYYYAN / GKNNRPS / CSRDSSGFFVF: 5.41 (1 of 3 replicates; controls 2 of 9).
AGDSLRYYYAN / GKNNRPS / RSRDSSGFWVF: 2.34 (3 of 3 replicates; controls 2 of 9).
EGDSLRYYYAN / GKCNRPS / SSRDSSGFKVD: 3.98 (1 of 3 replicates; controls 2 of 9).
EGDSLRAYYAN / GKNNEPS / SSRDSSGFFVF: 3.92 (3 of 3 replicates; controls 7 of 9).
EGDSLRYYYAN / GKNNIPS / SSRDSSGFNVF: 3.07 (3 of 3 replicates; controls 2 of 9).
EGDSLRYYYAN / GKMNRPS / SSRDSSGFGVF: 3.29 (3 of 3 replicates; controls 1 of 9).
EGDSLRTYYAN / GKNNRPS / VSRDSSGFMVF: 2.98 (3 of 3 replicates; controls 5 of 9).
EGDSLRYGYAN / GKNNNPS / SSRDSSGFYVF: 2.11 (3 of 3 replicates; controls 5 of 9).
CGDSLRYYYAN / GKNNRPS / SSRDSSGFKMF: 2.75 (3 of 3 replicates; controls 0 of 9).
EGDGGRYYYAN / GKNNRPS / SSRDSSGFGVF: 5.68 (1 of 3 replicates; controls 1 of 9).
EGDSLRYYYAN / GKVNRCS / SSRDSSGFHVF: 4.44 (2 of 3 replicates; controls 7 of 9).
EGDSLRYYYAN / GVNNRPL / SSRDSSGFVVF: 3.46 (3 of 3 replicates; controls 2 of 9).
EGDSLRYYYAN / GKNNRPS / SSRDSSGFDVF: 2.13 (3 of 3 replicates; controls 4 of 9).
LGDALRYYYAN / GKNNRPS / SSRDSSGFTVF: 3.35 (2 of 3 replicates; controls 5 of 9).
EGDSLRYYYAN / GKNNRPS / SPRDSSGFAVQ: 3.13 (1 of 3 replicates; controls 2 of 9).
EGDSLRYYYAN / GKNNRPS / SSRDFSGFHVF: 2.97 (3 of 3 replicates; controls 2 of 9).
EGDSLRYYTAN / GKNNRPS / SSRDSSGFGVF: 3.17 (3 of 3 replicates; controls 2 of 9).
EGDSLRYYYAN / GKNNKPS / SSRWSSGFTVF: 2.74 (3 of 3 replicates; controls 0 of 9).
EGDSLLNYYAN / GKNNRPS / SSRDSSGFSVF: 2.27 (3 of 3 replicates; controls 3 of 9).
EGDSLRYNYAN / GKKNRPS / SSRDSSGFHVF: 1.22 (3 of 3 replicates; controls 1 of 9).
EGDSLRSYYAN / GPNNRPS / SSRDSSGFRVF: 2.07 (3 of 3 replicates; controls 3 of 9).
EGDSLRYEYAN / GKNNRPS / SSRDSSGFTVF: 1.72 (3 of 3 replicates; controls 4 of 9).
EGDSLRYYYAN / GTNNRPS / SSRDSSGFWVF: 4.97 (1 of 3 replicates; controls 1 of 9).

Top 8 of the variants detected in all replicates, tightest first:

CDR-L1	CDR-L2	CDR-L3	log10 Kd (nM), mean	replicates with signal	empty controls
EGDSLRYNYAN	GKKNRPS	SSRDSSGFHVF	1.22	3/3	1/9
EGDSLRYEYAN	GKNNRPS	SSRDSSGFTVF	1.72	3/3	4/9
EGDSLRYTYAN	GKNNRPS	SSRDLSGFPVF	1.76	3/3	5/9
EGDSLRYYYAN	GKNNRPS	GSRDSSGFVPF	1.82	3/3	6/9
EGDSLRSYYAN	GPNNRPS	SSRDSSGFRVF	2.07	3/3	3/9
EGDSLRYYYAN	GKNNRPS	SSRDSSGSTVF	2.08	3/3	2/9
EGDSLRYGYAN	GKNNNPS	SSRDSSGFYVF	2.11	3/3	5/9
EGDSLRYYYAN	GKNNRPS	SSRDSSGFDVF	2.13	3/3	4/9